Laboratory results published in US5846562A, “Oral composition of fumagillol derivative” (Takeda Chemical Industries, Ltd., priority 1996, dated 1998).

Details: rat, in vivo, po, 100 mg/kg, 15 min
Text: Blood was collected from the caudal vein periodicaly to determine the plasma concentration of metabolite.

CO[C@@H]1[C@H](OC(=O)NC(=O)CCl)CC[C@]2(CO2)[C@H]1[C@@]1(C)O[C@@H]1CC=C(C)C [Compound A, 6-O-(N-chloroacetylcarbamoyl)fumagillol]
Plasma concentration of metabolite: 15.6 ± 1.6 ng/mL
